Only a part is listed here, and it is no random draw. Results filed as inconclusive are left out. Calls of active or inactive are those of the source. Calls follow the shape of the dose curve; as a rule, active = well fitted inhibition curve with a large enough effect; inconclusive = small, poorly fitted or top-dose-only effect, or effect the other way; inactive = flat fitted curve, though single readings scatter.
% is scaled to controls: 0 for no effect and ±100 for the full control effect.

This assay can be described thus: qHTS screen for small molecules that inhibit ELG1-dependent DNA repair in human embryonic kidney (HEK293T) cells expressing luciferase-tagged ELG1. Also: nearly all actives have a fitted effect of over 55% in size. The conditions noted are these: HEK293T ELG1-luciferase reporter, luminescence, 16 h, DNA damage induced by 5-fluorouridine; at 46.1 µM (top of the series). (In general: qHTS replaces the single test concentration by a dilution series.)
`CCC(=O)N(c1ccccc1)C1(COC)CCN(CCc2cccs2)CC1`: the activity change, negative = inhibition was inactive: -3.26%.

`CCC(=O)N(c1ccccc1)C1(COC)CCN(CCn2nnn(CC)c2=O)CC1`: the activity change, negative = inhibition is inactive: 11.9%.
